The values below are quoted from earlier work in US10858423B2, “Composition for the treatment of IGF-1R expressing cancer” (PIERRE FABRE MEDICAMENT, priority 2015, dated 2020).

The target in this data set is IGF-1R (Homo sapiens, UniProt P08069). The following applies: background statement; cited from earlier work.

For “IGF1: insulin-like growth factor 1, ligand of IGF-1R”, the Kd was roughly 1 nM.
